Paper PMC9300463 (Nature, 2022)

Protein sequences, listed by entry. Tags and fused reporters are not part of them. Lines headed by an entry give the natural chain unless they say otherwise; changes in a name come on top.
UniProt P0DO84: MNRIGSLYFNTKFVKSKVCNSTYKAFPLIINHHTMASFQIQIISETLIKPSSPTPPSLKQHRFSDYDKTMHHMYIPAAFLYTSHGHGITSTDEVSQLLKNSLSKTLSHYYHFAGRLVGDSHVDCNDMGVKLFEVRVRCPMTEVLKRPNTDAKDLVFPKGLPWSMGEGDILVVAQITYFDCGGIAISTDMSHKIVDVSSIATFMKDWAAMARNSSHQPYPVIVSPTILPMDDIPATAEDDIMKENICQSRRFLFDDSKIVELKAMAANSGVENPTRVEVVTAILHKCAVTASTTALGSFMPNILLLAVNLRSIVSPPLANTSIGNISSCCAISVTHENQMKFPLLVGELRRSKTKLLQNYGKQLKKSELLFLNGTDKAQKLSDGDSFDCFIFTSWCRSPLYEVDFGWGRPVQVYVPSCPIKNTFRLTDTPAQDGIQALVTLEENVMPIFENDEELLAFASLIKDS

Target: T1, SnvAT (Strychnos nux-vomica, UniProt P0DO84)
T1 construct: gene AT
Details: acyl donor, endogenous or from AAE13 plus malonate; with Wieland-Gumlich aldehyde

`CC(C)(COP(=O)(O)OP(=O)(O)OC[C@H]1O[C@@H](n2cnc3c(N)ncnc32)[C@H](O)[C@@H]1OP(=O)(O)O)[C@@H](O)C(=O)NCCC(=O)NCCSC(=O)CC(=O)O` [malonyl-CoA] was tested. Which “transient expression in N. benthamiana, LC-MS” value did it give?
The value was “SnvAT is a BAHD acyltransferase with predominantly malonyltransferase activity”.
